# Screens from PubChem.
# Shown are actives, neighbours in structure and some others; about 0.91% of the full set was active somewhere.
# Statin myotox sup = suppressors of statin myotoxicity in C2C12 myotubes, primary screen, cell-based, single point, plate reader; C2C12 myotubes + simvastatin, ATP luminescence, 48 h; scaled: DMSO 0, geranylgeraniol control 100; AID 602340, 2012; hit rate 0.78% among 330,000; rescue of ATP level, % at 7.49 µM;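 active means mean ATP rescue above about 67%, or every replicate alone reaching that limit, limit read from the data, passing the limit was not always enough; inconclusive means no clear call, values can overlap the other calls; inactive means mean under the limit and some replicate under it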;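 further: myotubes were challenged with 10 µM simvastatin during compound exposure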
# iPSC survival up = enhancers of single-cell hiPSC survival, primary screen, ATPlite luminescence; 100% = ROCK inhibitor wells, 0% = DMSO; survival enhancement, % at 20 µM; hit rate 0.044% among 360,000; in the data active means survival enhancement above about 18%;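 further: cells exposed to compounds for 16 hours before the ATP read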
# UUG fidelity = modulators of start codon recognition fidelity in yeast; AID 602363; hit rate 0.13% among 350,000; activity score, % at 18.7 µM; S. cerevisiae UUG-firefly luciferase reporter, luminescence/redox ratio;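 active = replicate mean at a twofold rise or more, about +100% in these data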;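 note: firefly luciferase made from a UUG start codon reports start codon fidelity; reporter light over untreated wells divided by growth signal over untreated wells; some hits fall short of that in this replicate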
# PGC1a acetyl inh = inhibitors of PGC1a acetylation signal, primary screen, cell-based, U2OS, AlphaScreen, inhibitor mode; inhibition, % at 15.6 µM; hit rate 0.17% among 350,000; AlphaScreen anti-acetyl-lysine; with virally co-expressed GCN5 acetyltransferase;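 active means every replicate shows inhibition of at least 40%; inconclusive means mean inhibition at least 40% but some replicate below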;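 further: 0% = neutral control wells and 100% = positive control wells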
# FN deposition inh = inhibitors of fibronectin matrix deposition, primary screen, AH1F cells, Alexa488-fibronectin fluorescence, plate reader. AID 743247, 2014. AH1F fibroblasts, overnight. hit rate 0.086% among 350,000. inhibition, % at 12.6 µM;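 active means mean inhibition across replicates of 30% or more, regardless of how many single replicates reach that level; inconclusive means mean under 30% yet at least half of replicates reach 30%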;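 further: positive control wells lacked labelled fibronectin entirely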
#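 Material: AH1F fibroblasts assembling fluorescent fibronectin matrix; amount: 10000 AH1F cells/well; medium: DMEM, 2% serum; reagent: Alexa488-fibronectin, 24 nM final in well; dosing: single compound dose, delivered by pin transfer; incubation: 1 h adhesion, overnight exposure; detection: fluorescence after three HBSS washes, excitation 485 nm, emission 525 nm; measure: fibronectin deposition inhibition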
# * marks the source's active call; other numbers are inactive results; ? = inconclusive; · = no result given.
1	CCCC#Cc1cnc2c(c1)C(=O)N([C@H](C)CO)C[C@@H](C)[C@H](CN(C)C(=O)C1CCOCC1)O2
2	O=c1cc(-c2ccco2)oc2c1ccc1ccccc12
3	CCOC(=O)C1=C(C)N=C2SC(C)C(=O)N2C1c1ccc(C(=O)OC)cc1 (stereo unspecified)
4	COCCn1c(C)cc(C(=O)CSc2nc3ccccc3s2)c1C
5	COCCn1c(C)cc(C(=O)CSc2nc3ccccc3o2)c1C
6	CO[C@H]1CN(C)C(=O)c2cc(NC(=O)C3CC3)ccc2OC[C@H](C)N(C(=O)c2ccccc2)C[C@@H]1C
7	COc1ccc(S(=O)(=O)Nc2ccc3c(c2)C(=O)N([C@@H](C)CO)C[C@H](C)[C@H](CN(C)S(=O)(=O)c2ccc(F)cc2)OCCCC[C@H](C)O3)cc1
8	COc1ccc(S(=O)(=O)Nc2ccc3c(c2)C(=O)N([C@H](C)CO)C[C@@H](C)[C@@H](CN(C)S(=O)(=O)c2ccc(F)cc2)OCCCC[C@H](C)O3)cc1
Screen / compound no.	1	2	3	4	5	6	7	8
Statin myotox sup	·	103*	91*	-34	85*	-1	174*	141*
iPSC survival up	·	-3	-3	-1	0	·	·	·
UUG fidelity	·	-2	-5	-12	-32	6	5	-2
PGC1a acetyl inh	10	11	-18	8	-2	16	-15	13
FN deposition inh	·	1	5	-1	1	5	·	·

9	O=C1CCC(=O)N1CCC(c1ccc(F)cc1)c1ccco1 (stereo unspecified)
10	O=C1c2ccccc2C(=O)N1CCC(c1ccc(F)cc1)c1ccco1 (stereo unspecified)
11	Cc1ccc(C(C#N)c2ccc(Cl)nn2)cc1 (stereo unspecified)
12	N#CC(c1ccc(Cl)cc1)c1ccc(Cl)nn1 (stereo unspecified)
13	C=CCn1c(-c2ccccc2)cc(SC)c(C#N)c1=O
14	CCCn1c(-c2ccccc2)cc(SC)c(C#N)c1=O
15	COC(=O)C[C@@H]1CC[C@@H](NC(=O)Nc2ccc(C(F)(F)F)cc2)[C@@H](CO)O1
16	O=c1c2c([nH]c3ccccc13)C(=C1CCCC1)CC2
Screen / compound no.	9	10	11	12	13	14	15	16
Statin myotox sup	-5	77*	·	106*	-3	-8	-11	·
iPSC survival up	4	5	-1	-1	1	2	·	0
UUG fidelity	-9	-8	·	-11	6	·	-13	·
PGC1a acetyl inh	6	-5	-2	-10	·	93*	3	8
FN deposition inh	·	·	-2	·	-5	1	-6	·

# Three entries out of the list, ordered by count of non-hydrogen atoms, ascending.
5	COCCn1c(C)cc(C(=O)CSc2nc3ccccc3o2)c1C
15	COC(=O)C[C@@H]1CC[C@@H](NC(=O)Nc2ccc(C(F)(F)F)cc2)[C@@H](CO)O1
7	COc1ccc(S(=O)(=O)Nc2ccc3c(c2)C(=O)N([C@@H](C)CO)C[C@H](C)[C@H](CN(C)S(=O)(=O)c2ccc(F)cc2)OCCCC[C@H](C)O3)cc1
Screen / compound no.	5	15	7
Statin myotox sup	85*	-11	174*
iPSC survival up	0	·	·
UUG fidelity	-32	-13	5
PGC1a acetyl inh	-2	3	-15
FN deposition inh	1	-6	·

# The list goes on:
17	O=c1c2c([nH]c3ccccc13)CCCC2
18	CN1c2ccc(-c3ccccc3F)cc2[C@H]2[C@H](CCN2C(=O)CN2CCOCC2)[C@H]1CO
19	CC(c1ccco1)N(C(=O)Nc1ccc(Cl)cc1)c1ccccn1 (stereo unspecified)
20	COc1ccc(C(=O)CN2C3=NCCCN3c3ccccc32)cc1OC
21	COc1cccc(C(=O)CN2C3=NCCCN3c3ccccc32)c1
22	CCc1ccc(CCC(=O)Nc2sc(C)c(C)c2C(=O)OC)o1
23	CN1C(=O)c2cc(NC(=O)Nc3cccc(Cl)c3)ccc2OC[C@@H]2O[C@H](CC(=O)NCCc3ccncc3)CC[C@H]21
24	O=C(Nc1nnc(-c2ccc(Br)cc2)o1)c1ccco1
Screen / compound no.	17	18	19	20	21	22	23	24
Statin myotox sup	98*	12	124*	·	134*	94*	-20	-6
iPSC survival up	2	·	2	-3	1	2	·	0
UUG fidelity	-13	8	-10	·	-12	13	-5	-14
PGC1a acetyl inh	3	6	-2	·	-6	-22	-11	7
FN deposition inh	·	-7	·	-8	8	·	3	·

25	O=C(Nc1nnc(-c2cccs2)o1)c1ccco1
26	Cn1c(SCC(=O)N2CCN(C(=O)c3ccco3)CC2)nnc1-c1ccc(NS(C)(=O)=O)cc1
27	O=C(N1CCCCCC1)N1CCN(S(=O)(=O)N2CCOCC2)CC1
28	O=C(N1CCOCC1)N1CCN(S(=O)(=O)N2CCOCC2)CC1
29	Cc1cc(/C=C2\C(=N)N3N=C(C(C)C)SC3=NC2=O)c(C)n1Cc1ccccc1
30	CCC1=NN2C(=N)/C(=C/c3cc(C)n(Cc4ccccc4)c3C)C(=O)N=C2S1
31	CO[C@H]1CC[C@@H]2CCOc3c(C#N)cccc3C(=O)N(C)C[C@H](c3ccccc3)CC(=O)N(C)C[C@@H]1O2
32	COc1ccc(CNC(=O)c2c(O)c3cccc4c3n(c2=O)CCC4)cc1
Screen / compound no.	25	26	27	28	29	30	31	32
Statin myotox sup	69*	98*	-5	114*	-1	·	4	2
iPSC survival up	-1	3	-1	-2	0	1	·	7
UUG fidelity	-21	-9	-17	-8	-23	·	·	-14
PGC1a acetyl inh	1	6	6	5	49*	·	-11	3
FN deposition inh	7	0	·	·	6	-16	6	·

33	COc1ccc(CNC(=O)c2c(O)c3cccc4c3n(c2=O)CCC4)cc1OC
34	O=C(Cc1ccccn1)NCC[C@H]1CC[C@@H](NC(=O)Nc2ccc(Cl)cc2)[C@H](CO)O1
35	Cc1noc(C)c1NC(=O)N(C)C[C@H]1Oc2c(NC(=O)CCCCCC(=O)Nc3ccccc3N)cccc2C(=O)N([C@@H](C)CO)C[C@@H]1C
36	CC(C)Cc1nc2ccccc2[nH]1
37	CCC(C)SCc1nc2ccccc2[nH]1 (stereo unspecified)
38	CC(C)NC(=O)Nc1ccc2c(c1)C(=O)N(C)[C@@H]1CC[C@H](CC(=O)NCC(F)(F)F)O[C@@H]1CO2
39	C[C@H](CO)N1C[C@H](C)[C@H](CN(C)S(=O)(=O)c2cccs2)OCCCC[C@H](C)Oc2ccc(NC(=O)Nc3ccc(F)cc3)cc2C1=O
40	COc1ccc(S(=O)(=O)Nc2ccc3c(c2)C(=O)N([C@@H](C)CO)C[C@H](C)[C@@H](CN(C)S(=O)(=O)c2cccs2)OCCCC[C@@H](C)O3)cc1
Screen / compound no.	33	34	35	36	37	38	39	40
Statin myotox sup	79*	3	·	0	121*	11	?	79*
iPSC survival up	1	·	·	0	-2	·	·	·
UUG fidelity	-26	·	·	-5	·	16	-11	-2
PGC1a acetyl inh	13	-17	1	·	-12	2	6	-8
FN deposition inh	·	·	3	3	·	-4	·	3

# As entered above.
# In Statin myotox sup, COc1ccc(S(=O)(=O)Nc2ccc3c(c2)C(=O)N([C@@H](C)CO)C[C@H](C)[C@@H](CN(C)S(=O)(=O)c2cccs2)OCCCC[C@@H](C)O3)cc1 shows 79*
# In PGC1a acetyl inh, C[C@H](CO)N1C[C@H](C)[C@H](CN(C)S(=O)(=O)c2cccs2)OCCCC[C@H](C)Oc2ccc(NC(=O)Nc3ccc(F)cc3)cc2C1=O shows 6
# In Statin myotox sup, O=C(Cc1ccccn1)NCC[C@H]1CC[C@@H](NC(=O)Nc2ccc(Cl)cc2)[C@H](CO)O1 shows 3

# Continuation.
41	COc1ccc(S(=O)(=O)Nc2ccc3c(c2)C(=O)N([C@H](C)CO)C[C@@H](C)[C@H](CN(C)S(=O)(=O)c2cccs2)OCCCC[C@H](C)O3)cc1
42	COc1ccc(S(=O)(=O)Nc2ccc3c(c2)C(=O)N([C@H](C)CO)C[C@H](C)[C@H](CN(C)S(=O)(=O)c2cccs2)OCCCC[C@H](C)O3)cc1
43	C[C@@H]1CCCCO[C@@H](CN(C)S(=O)(=O)c2cccs2)[C@H](C)CN([C@@H](C)CO)C(=O)c2cc(NC(=O)Nc3ccc(F)cc3)ccc2O1
44	O=C(CCCN1Cc2ccccc2C1)c1ccc(F)cc1
45	CCCCCCN1Cc2ccccc2C1
46	Cc1ccc(S(=O)(=O)N(C)C[C@H]2Oc3ccc(NC(=O)Cn4cnnn4)cc3C(=O)N([C@H](C)CO)C[C@@H]2C)cc1
47	Nc1nnnn1/N=C/c1ccccn1
Screen / compound no.	41	42	43	44	45	46	47
Statin myotox sup	102*	97*	84*	23	106*	2	83*
iPSC survival up	·	·	·	-1	-1	·	-1
UUG fidelity	18	-3	1	-16	-3	-1	-4
PGC1a acetyl inh	-12	-3	1	10	-1	-1	-4
FN deposition inh	11	5	·	·	·	·	·
